Measured values from ChEMBL document CHEMBL2203205 (Eur J Med Chem, 2012).

System: Nitric oxide synthase, inducible (Homo sapiens)
Experiment: Inhibition of recombinant human iNOS expressed in baculovirus-infected Sf9 cells assessed as conversion of [3H]-larginine to [3H]-L-citrulline preincubated for 15 mins measured after 45 mins by liquid scintillation counting; call rule not given here

IC50: Not Active
SMILES: Cl.Cl.N=C(Nc1ccc2c(c1)CCN2CCNCCO)c1cccs1
